From IntAct's records for PubMed 20562920 come the findings set out here.

B1: Zinc finger protein SNAI1 (Homo sapiens), O95863 (parent)
chain: MPRSFLVRKPSDPNRKPNYSELQDSNPEFTFQQPYDQAHLLAAIPPPEILNPTASLPMLIWDSVLAPQAQPIAWASLRLQESPRVAELTSLSDEDSGKGSQPPSPPSPAPSSFSSTSVSSLEAEAYAAFPGLGQVPKQLAQLSEAKDLQARKAFNCKYCNKEYLSLGALKMHIRSHTLPCVCGTCGKAFSRPWLLQGHVRTHTGEKPFSCPHCSRAFADRSNLRAHLQTHSDVKKYQCQACARTFSRMSLLHKHQESGCSGCPR

The variants in the assay derive from B1. The note with it: with kdm1a_human KDM1A.
MARSFLVRKPSDPNRKPNYSELQDSNPEFTFQQPYDQAHLLAAIPPPEILNPTASLPMLIWDSVLAPQAQPIAWASLRLQESPRVAELTSLSDEDSGKGSQPPSPPSPAPSSFSSTSVSSLEAEAYAAFPGLGQVPKQLAQLSEAKDLQARKAFNCKYCNKEYLSLGALKMHIRSHTLPCVCGTCGKAFSRPWLLQGHVRTHTGEKPFSCPHCSRAFADRSNLRAHLQTHSDVKKYQCQACARTFSRMSLLHKHQESGCSGCPR [P2A]: the “effect of a mutation on the interaction” value is given as “disrupting interaction”.
